Numbers after ± are expanded uncertainties.
Conditions: 298.15 K; 101.33 kPa; Liquid; Vibrating tube method

mass density: 763.806 ± 0.13 kg/m3
SMILES: CCCCOCCCC [dibutyl ether]
